The results in this text go back to PMC6339850 (ACS chemical neuroscience, 2018).

Protein sequences, listed by entry. Tags and fused reporters are not part of them. Lines headed by an entry give the natural chain unless they say otherwise; changes in a name come on top.
UniProt P33033: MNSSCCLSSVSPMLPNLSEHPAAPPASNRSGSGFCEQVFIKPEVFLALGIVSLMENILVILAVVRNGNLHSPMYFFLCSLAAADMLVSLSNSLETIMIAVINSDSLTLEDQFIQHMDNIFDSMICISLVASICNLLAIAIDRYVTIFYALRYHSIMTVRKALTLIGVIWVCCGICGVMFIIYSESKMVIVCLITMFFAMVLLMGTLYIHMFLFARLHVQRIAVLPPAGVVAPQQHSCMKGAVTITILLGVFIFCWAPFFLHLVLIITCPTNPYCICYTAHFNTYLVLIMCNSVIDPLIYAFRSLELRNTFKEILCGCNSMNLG
UniProt P56450, whole entry: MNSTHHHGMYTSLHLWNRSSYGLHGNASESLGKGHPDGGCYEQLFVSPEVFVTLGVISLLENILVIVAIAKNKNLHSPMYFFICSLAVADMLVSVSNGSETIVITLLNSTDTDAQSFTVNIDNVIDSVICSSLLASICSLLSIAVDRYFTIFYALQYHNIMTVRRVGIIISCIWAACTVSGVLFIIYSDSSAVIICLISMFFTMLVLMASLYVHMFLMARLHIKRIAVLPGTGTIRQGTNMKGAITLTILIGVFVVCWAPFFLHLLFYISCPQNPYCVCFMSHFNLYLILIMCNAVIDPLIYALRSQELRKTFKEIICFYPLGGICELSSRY

Experiment [1] deals with T1, mouse MC3R (Mus musculus, UniProt P33033). Kind of experiment: cAMP AlphaScreen antagonist assay.
Experiment [2] concerns the target T1, mouse MC3R. Kind of experiment: cell-based.
The target of experiment [3] is T2, mouse MC4R (Mus musculus, UniProt P56450). Kind of experiment: cAMP AlphaScreen antagonist assay.
Experiment [4] concerns the target T2, mouse MC4R. Kind of experiment: cAMP AlphaScreen agonist assay, HEK293 cells stably expressing mouse MC4R.

In the case of `C[C@@H]1NC(=O)[C@H](CC(N)=O)NC(=O)[C@H](Cc2ccccc2)NC(=O)[C@H](Cc2ccccc2)NC(=O)[C@@H](CCCNC(=N)N)NC(=O)[C@@H]2CCCN2C(=O)[C@H]2CCCN2C(=O)[C@H](Cc2ccccc2)NC1=O` [Peptide 3, c[Pro-DArg-Phe-Phe-Asn-Ala-Phe-DPro]], the Kb on mouse MC3R [1] is above 3.16 µM. On mouse MC3R [2], the half-maximal effective concentration (EC50) is above 100 µM.
For `C[C@@H]1NC(=O)[C@H](CC(N)=O)NC(=O)[C@H](Cc2ccccc2)NC(=O)[C@@H](Cc2ccccc2)NC(=O)[C@H](CCCNC(=N)N)NC(=O)[C@@H]2CCCN2C(=O)[C@H]2CCCN2C(=O)[C@H](Cc2ccccc2)NC1=O` [Peptide 4, c[Pro-Arg-DPhe-Phe-Asn-Ala-Phe-DPro]], in that order: 1.58 µM and above 100 µM.
The like results for `C[C@@H]1NC(=O)[C@H](CC(N)=O)NC(=O)[C@@H](Cc2ccccc2)NC(=O)[C@H](Cc2ccccc2)NC(=O)[C@H](CCCNC(=N)N)NC(=O)[C@@H]2CCCN2C(=O)[C@H]2CCCN2C(=O)[C@H](Cc2ccccc2)NC1=O` [Peptide 5, c[Pro-Arg-Phe-DPhe-Asn-Ala-Phe-DPro]] were, in that order, above 3.16 µM and above 100 µM.
For `C[C@@H]1NC(=O)[C@H](CC(N)=O)NC(=O)[C@H](Cc2ccccc2)NC(=O)[C@@H](Cc2ccccc2)NC(=O)[C@@H](CCCNC(=N)N)NC(=O)[C@@H]2CCCN2C(=O)[C@H]2CCCN2C(=O)[C@H](Cc2ccccc2)NC1=O` [Peptide 6, c[Pro-DArg-DPhe-Phe-Asn-Ala-Phe-DPro]], in that order: above 3.16 µM and above 100 µM.
At mouse MC3R [1], `C[C@@H]1NC(=O)[C@H](CC(N)=O)NC(=O)[C@@H](Cc2ccccc2)NC(=O)[C@H](Cc2ccccc2)NC(=O)[C@@H](CCCNC(=N)N)NC(=O)[C@@H]2CCCN2C(=O)[C@H]2CCCN2C(=O)[C@H](Cc2ccccc2)NC1=O` [Peptide 7, c[Pro-DArg-Phe-DPhe-Asn-Ala-Phe-DPro]] showed a Kb above 3.16 µM.
In turn, `C[C@@H]1NC(=O)[C@H](CC(N)=O)NC(=O)[C@@H](Cc2ccccc2)NC(=O)[C@@H](Cc2ccccc2)NC(=O)[C@H](CCCNC(=N)N)NC(=O)[C@@H]2CCCN2C(=O)[C@H]2CCCN2C(=O)[C@H](Cc2ccccc2)NC1=O` [Peptide 8, c[Pro-Arg-DPhe-DPhe-Asn-Ala-Phe-DPro]] showed a Kb at mouse MC3R [1] above 3.16 µM. Besides, the EC50 at mouse MC3R [2] was above 100 µM.
The like results for `C[C@@H]1NC(=O)[C@H](CC(N)=O)NC(=O)[C@@H](Cc2ccccc2)NC(=O)[C@@H](Cc2ccccc2)NC(=O)[C@@H](CCCNC(=N)N)NC(=O)[C@@H]2CCCN2C(=O)[C@H]2CCCN2C(=O)[C@H](Cc2ccccc2)NC1=O` [Peptide 9, c[Pro-DArg-DPhe-DPhe-Asn-Ala-Phe-DPro]] were, in that order, above 3.16 µM and above 100 µM.
In the case of `C[C@@H]1NC(=O)[C@H](CN)NC(=O)[C@H](Cc2ccccc2)NC(=O)[C@H](Cc2ccccc2)NC(=O)[C@@H](CCCNC(=N)N)NC(=O)[C@@H]2CCCN2C(=O)[C@H]2CCCN2C(=O)[C@H](Cc2ccccc2)NC1=O` [Peptide 10, c[Pro-DArg-Phe-Phe-Dap-Ala-Phe-DPro]], the Kb on mouse MC4R [3] was 0.17 µM.
On the same count and under the same terms, in the case of `C[C@@H]1NC(=O)[C@H](CN)NC(=O)[C@H](Cc2ccccc2)NC(=O)[C@@H](Cc2ccccc2)NC(=O)[C@H](CCCNC(=N)N)NC(=O)[C@@H]2CCCN2C(=O)[C@H]2CCCN2C(=O)[C@H](Cc2ccccc2)NC1=O` [Peptide 11, c[Pro-Arg-DPhe-Phe-Dap-Ala-Phe-DPro]] it was 0.00398 µM.
Consider `C[C@@H]1NC(=O)[C@H](CN)NC(=O)[C@@H](Cc2ccccc2)NC(=O)[C@H](Cc2ccccc2)NC(=O)[C@H](CCCNC(=N)N)NC(=O)[C@@H]2CCCN2C(=O)[C@H]2CCCN2C(=O)[C@H](Cc2ccccc2)NC1=O` [Peptide 12, c[Pro-Arg-Phe-DPhe-Dap-Ala-Phe-DPro]], for which the Kb at mouse MC4R [3] is 0.0457 µM. For the same compound, the EC50 at mouse MC4R [4] was above 100 µM.
With `C[C@@H]1NC(=O)[C@H](CN)NC(=O)[C@H](Cc2ccccc2)NC(=O)[C@@H](Cc2ccccc2)NC(=O)[C@@H](CCCNC(=N)N)NC(=O)[C@@H]2CCCN2C(=O)[C@H]2CCCN2C(=O)[C@H](Cc2ccccc2)NC1=O` [Peptide 13, c[Pro-DArg-DPhe-Phe-Dap-Ala-Phe-DPro]], the EC50 at mouse MC4R [4] is above 100 µM.
Regarding `C[C@@H]1NC(=O)[C@H](CN)NC(=O)[C@@H](Cc2ccccc2)NC(=O)[C@H](Cc2ccccc2)NC(=O)[C@@H](CCCNC(=N)N)NC(=O)[C@@H]2CCCN2C(=O)[C@H]2CCCN2C(=O)[C@H](Cc2ccccc2)NC1=O` [Peptide 14, c[Pro-DArg-Phe-DPhe-Dap-Ala-Phe-DPro]], the Kb on mouse MC4R [3] is 0.151 µM. This compound displayed an EC50 on mouse MC4R [4] above 100 µM.
In the case of `C[C@@H]1NC(=O)[C@H](CN)NC(=O)[C@@H](Cc2ccccc2)NC(=O)[C@@H](Cc2ccccc2)NC(=O)[C@H](CCCNC(=N)N)NC(=O)[C@@H]2CCCN2C(=O)[C@H]2CCCN2C(=O)[C@H](Cc2ccccc2)NC1=O` [Peptide 15, c[Pro-Arg-DPhe-DPhe-Dap-Ala-Phe-DPro]], the Kb on mouse MC4R [3] was 0.0398 µM. Besides, the EC50 on mouse MC4R [4] was above 100 µM.
For `C[C@@H]1NC(=O)[C@H](CN)NC(=O)[C@@H](Cc2ccccc2)NC(=O)[C@@H](Cc2ccccc2)NC(=O)[C@@H](CCCNC(=N)N)NC(=O)[C@@H]2CCCN2C(=O)[C@H]2CCCN2C(=O)[C@H](Cc2ccccc2)NC1=O` [Peptide 16, c[Pro-DArg-DPhe-DPhe-Dap-Ala-Phe-DPro]], in that order: 1.58 µM and above 100 µM.
